The series deals with O=c1[nH]c(=O)c2[nH]c(=O)[nH]c2[nH]1. Description: purified protein, by the assay type. The settings on record: other: role: substrate; wild type Aspergillus flavus uricase (WT); pH 10.5; 25.0 °C.

With “Aspergillus flavus uricase, wild type, SEQ ID NO: 7 (Aspergillus flavus)”, the kcat was determined as 1.23 ± 0.04 s⁻¹.

The values are drawn from US20260308536A1, “NOVEL URICASE VARIANTS AND METHODS OF USE THEREOF” (priority 2023, published 2026).
